Laboratory results reported in patent publication US20110306035A1, “Methods and Compositions for Detection of a Pathogen, Disease, Medical Condition, or Biomarker Thereof” (priority 2008, published 2011).

Tested on: Enterovirus 3C protease
Assay: Enterovirus assay in clinical CSF samples (vs RT-PCR)
Type: biochemical
Settings: bacterial samples 23-25; new assay conditions

O=C(O)c1cccc(C(=O)O)n1 [2,6-pyridinedicarboxylic acid]
effect on unspecific background activity of bacterial CSF samples: could not abolish
